Among the data in ChEMBL document CHEMBL5113375, “Development of Mcl-1 inhibitors for cancer therapy” (Eur J Med Chem, 2021) are IC50 values, retold here.

The chains behind the UniProt entries cited, without tags or fusion partners.
UniProt Q07820, whole entry: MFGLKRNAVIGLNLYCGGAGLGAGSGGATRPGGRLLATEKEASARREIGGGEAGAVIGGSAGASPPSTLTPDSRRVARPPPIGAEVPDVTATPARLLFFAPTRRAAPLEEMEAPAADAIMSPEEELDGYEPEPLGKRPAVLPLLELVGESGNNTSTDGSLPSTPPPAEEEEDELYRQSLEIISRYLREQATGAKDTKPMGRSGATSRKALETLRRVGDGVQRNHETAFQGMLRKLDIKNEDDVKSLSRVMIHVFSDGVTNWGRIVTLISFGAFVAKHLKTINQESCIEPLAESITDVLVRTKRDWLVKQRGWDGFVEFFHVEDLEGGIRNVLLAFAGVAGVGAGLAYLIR
UniProt Q07817, whole entry: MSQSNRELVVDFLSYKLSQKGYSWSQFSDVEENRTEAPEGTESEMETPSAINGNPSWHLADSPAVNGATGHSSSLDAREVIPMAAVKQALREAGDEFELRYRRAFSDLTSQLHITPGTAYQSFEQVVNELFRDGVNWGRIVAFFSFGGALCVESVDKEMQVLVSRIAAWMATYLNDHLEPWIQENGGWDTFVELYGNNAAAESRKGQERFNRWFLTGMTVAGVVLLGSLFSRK

One experiment addresses MCL1-BAK1 complex (Homo sapiens, UniProt Q07820). Nature of the experiment: Inhibition of Mcl-1/Bak (unknown origin). It is filed as protein-complex assay.
Another experiment concerns the target Bcl-xL/BAK (Homo sapiens, UniProt Q07817). Nature of the experiment: Inhibition of Bcl-xL/Bak (unknown origin). It is filed as protein assay.

pIC50: −log10 of the molar value.

The pIC50 is the negative decadic logarithm of the IC50, by convention in mol/L. For the compound `Cc1cc2c(C(=O)NCC(C)c3ccccc3)c(O)c(O)cc2c(O)c1-c1c(C)cc2c(C(=O)NC[C@@H](C)c3ccccc3)c(O)c(O)cc2c1O` (some centres not stated), the pIC50 against MCL1-BAK1 complex was 6.55; on Bcl-xL/BAK it was 6.12.
